Measurements as given in publication PMC8600089, “The development of a high-affinity conformation-sensitive antibody mimetic using a biocompatible copolymer carrier (iBody)” (The Journal of Biological Chemistry, 2021).

System: biotinylated recombinant extracellular part of PSMA
Conditions: 2-PMPA 12.5 μM, n = 4

In the case of O=C(O)CCC(CP(=O)(O)O)C(=O)O (stereo not shown) [2-PMPA, 2-(phosphonomethyl)pentane-1,5-dioic acid], the “competition with binding of Phage1-TBMB to PSMA, phage ELISA (in words)” value is reported as “competed out the binding of Phage1”.
